According to US11629193B2, “EGFR binding molecules” (F-STAR BETA LIMITED, priority 2016, dated 2023):
Entries after “also recorded” stand apart in the source; their conditions may differ.

System: LXFA 677 PDX tumours
Assay: In vivo efficacy in patient-derived lung adenocarcinoma xenograft model LXFA 677
Design: species or system mice
Settings: seven doses intravenously over two weeks

Substance: cetuximab [reference compound]
- tumour remission (Example 10, 20 mg/kg): complete tumour remission in all treated mice; also recorded: complete tumour regression
- tumour remission (Example 21, 20 mg/kg): complete tumour regression
